Assay results: PubChem BioAssay AID504651 (National Center for Advancing Translational Sciences (NCATS), 2011)
Only a part is listed here, and it is no random draw. Active and inactive are the calls of the source. No stated cut-off is given here; in the data, active means potentiation above about 30%; inactive means the rest.

Protein sequences, listed by entry. Tags and fused reporters are not part of them.
UniProt P21728, whole entry: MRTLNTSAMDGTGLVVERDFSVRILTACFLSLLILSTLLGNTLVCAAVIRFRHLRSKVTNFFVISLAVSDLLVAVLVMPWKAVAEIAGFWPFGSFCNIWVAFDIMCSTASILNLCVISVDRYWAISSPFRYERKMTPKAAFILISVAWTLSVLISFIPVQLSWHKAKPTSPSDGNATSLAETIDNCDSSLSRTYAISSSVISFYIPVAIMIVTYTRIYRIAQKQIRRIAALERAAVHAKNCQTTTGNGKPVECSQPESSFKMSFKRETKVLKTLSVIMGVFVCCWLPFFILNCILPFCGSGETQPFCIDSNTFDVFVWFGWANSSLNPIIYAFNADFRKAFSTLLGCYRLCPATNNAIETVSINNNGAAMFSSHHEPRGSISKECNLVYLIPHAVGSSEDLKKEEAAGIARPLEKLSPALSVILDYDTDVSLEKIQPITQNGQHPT

Molecular target: D(1A) dopamine receptor (Homo sapiens) (UniProt P21728)
Test: Potentiators of Human D1 Dopamine Receptor: qHTS; further: 0% is about no effect
Settings: HEK293 TREx D1 cells, calcium flux, dopamine EC20 potentiation; at 10 µM; active compounds read high

SMILES	potentiation
O=[N+]([O-])c1ccc2c(c1)C=Nc1ccccc1O2	inactive: -2.75%
Cc1cccc(C)c1OP(C)(N)=O (stereo not drawn)	inactive: -5%
CC(C)(C)c1ccc(OP(C)(=O)Nc2ccc(SC(F)(F)F)cc2)cc1 (stereo not drawn)	inactive: -4.15%
O=[N+]([O-])c1cc([N+](=O)[O-])c(Nc2cccnc2)c([N+](=O)[O-])c1	inactive: -7.65%
Cc1cc(C)cc(OP(C)(N)=O)c1 (stereo not drawn)	inactive: 0.85%
COc1ccc(OP(C)(=O)Nc2cccc(F)c2)cc1 (stereo not drawn)	inactive: 7.38%
COc1ccccc1OP(C)(=O)Nc1cc(Cl)ccc1C (stereo not drawn)	inactive: -1.05%
Cc1ccc(NP(C)(=O)Oc2ccccc2)c(C)c1 (stereo not drawn)	inactive: -3.65%
COc1ccccc1OP(C)(=O)Nc1ccc(C)cc1 (stereo not drawn)	inactive: 6.3%
CCOC(=O)c1ccc(NP(C)(=O)Oc2ccccc2)cc1 (stereo not drawn)	inactive: -0.85%
CCN(CC)CCCOC(=O)C(O)(c1ccccc1)c1ccccc1	inactive: -3%
Cc1cc(C)cc(OP(C)(=O)Nc2ccc(SC(F)(F)F)cc2)c1 (stereo not drawn)	inactive: 3.8%
CCc1ccc(OP(C)(=O)N2CCN(c3ccc([N+](=O)[O-])cc3)CC2)cc1 (stereo not drawn)	inactive: -6.28%
CP(=O)(NC(=O)Nc1ccccc1)Oc1ccccc1 (stereo not drawn)	inactive: -8.4%
CP(=O)(Oc1ccccc1)OC(c1ccccc1)C(F)(F)F (stereo not drawn)	inactive: -3.3%
CP(=O)(Nc1ccc(SC(F)(F)F)cc1)Oc1ccc(Cl)cc1 (stereo not drawn)	inactive: -9.6%
Cc1cccc(C)c1OP(C)(=O)Nc1ccc(SC(F)(F)F)cc1 (stereo not drawn)	inactive: -3.65%
CP(=O)(Nc1ccccn1)Oc1ccc(Cl)cc1 (stereo not drawn)	inactive: -6.3%
CCOC(=O)c1ccc(NP(C)(=O)Oc2ccc(OC)cc2)cc1 (stereo not drawn)	inactive: 4.9%
CCOP(C)(=S)SCC(=O)NC(C)C(=O)O (stereo not drawn)	inactive: 3.45%
CP(=O)(Nc1ccccc1Br)Oc1ccccc1 (stereo not drawn)	inactive: 2.1%
COc1ccccc1OP(C)(=O)Nc1ccccc1 (stereo not drawn)	inactive: 7.45%
CP(=S)(Nn1cnnc1)Oc1ccccc1 (stereo not drawn)	inactive: -3.75%
